Amino acid sequences for entries named in this document (tags omitted). A change or cut given only in a name is not applied to a line headed by its entry.
UniProt P41146: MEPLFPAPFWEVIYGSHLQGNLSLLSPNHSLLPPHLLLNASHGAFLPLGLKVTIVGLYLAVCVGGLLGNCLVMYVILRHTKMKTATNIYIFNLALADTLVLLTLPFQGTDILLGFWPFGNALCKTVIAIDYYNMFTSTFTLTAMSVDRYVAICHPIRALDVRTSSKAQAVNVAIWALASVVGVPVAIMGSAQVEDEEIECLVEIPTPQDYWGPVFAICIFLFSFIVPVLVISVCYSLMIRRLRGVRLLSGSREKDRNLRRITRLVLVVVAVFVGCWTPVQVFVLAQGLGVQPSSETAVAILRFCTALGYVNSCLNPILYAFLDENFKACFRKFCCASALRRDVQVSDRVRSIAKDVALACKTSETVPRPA

According to patent US9951038B2, “Quinazolin-4(3H)-one-type piperidine compounds and uses thereof” (Purdue Pharma L.P., priority 2012, dated 2018):

Biological target: human opioid receptor-like (ORL-1) (Homo sapiens, UniProt P41146)
Assay: In vitro ORL-1 receptor binding assay ([3H]-nociceptin displacement)
Conditions: read-out: ORL-1 Ki; Average ± Std Deviation; membranes from recombinant HEK-293 cells, 0.1 nM [3H]-nociceptin

| Compound | Ki [nM] |
| --- | --- |
| O=C(O)c1nc2ccccc2c(=O)n1C1C[C@H]2CCC[C@@H](C1)N2C1C[C@H]2CCC[C@@H](C1)C2 (stereo partly drawn) [9 (D2b), 3-((1R,1′R,3R,3′R,5S,5′S)-[3,9′-bi(9′-azabicyclo[3.3.1]nonan)]-3′-yl)-4-oxo-3,4-dihydroquinazoline-2-carboxylic acid] | 8.86 |
| O=c1[nH]c2ccccc2c(=O)n1C1C[C@H]2CCC[C@@H](C1)N2C1C[C@H]2CCC[C@@H](C1)C2 (some centres unmarked) [12 (D1a)] | 4.98 |
| O=C(O)Cn1c(=O)n(C2C[C@H]3CCC[C@@H](C2)N3C2C[C@H]3CCC[C@@H](C2)C3)c(=O)c2ccccc21 (stereo partly drawn) [15 (D3a), 2-(3-((1R,1′R,3r,3′R,5S,5′S)-[3,9′-bi(9′-azabicyclo[3.3.1]nonan)]-3′-yl)-2,4-dioxo-3,4-dihydroquinazolin-1(2H)-yl)acetic acid] | 46.1 |
| O=C(O)CNC(=O)Cn1c(=O)n(C2C[C@H]3CCC[C@@H](C2)N3C2C[C@H]3CCC[C@@H](C2)C3)c(=O)c2ccccc21 (stereo partly drawn) [18 (D28a), 2-(2-(3-((1R,1′R,3r,3′R,5S,5′S)-[3,9′-bi(9′-azabicyclo[3.3.1]nonan)]-3′-yl)-2,4-dioxo-3,4-dihydroquinazolin-1(2H)-yl)acetamido)acetic acid] | 134 |
| O=C(O)Cn1c(=O)n(C2C[C@H]3CCC[C@@H](C2)N3C2C[C@H]3CCCC[C@@H](C2)C3)c(=O)c2ccccc21 (stereo partly drawn) [21 (J3a), 2-(3-((1R,3R,5S)-9-((1R,6S,8r)-bicyclo[4.3.1]decan-8-yl)-9-azabicyclo[3.3.1]nonan-3-yl)-2,4-dioxo-3,4-dihydroquinazolin-1(2H)-yl)acetic acid] | 72.7 |
